We go through 1 molecule from ChEMBL document CHEMBL1124263 (J Med Chem, 1988).

The chains behind the UniProt entries cited, without tags or fusion partners. Where a name states a change or a piece, a line headed by the entry shows the natural chain unless it says otherwise.
UniProt P30994: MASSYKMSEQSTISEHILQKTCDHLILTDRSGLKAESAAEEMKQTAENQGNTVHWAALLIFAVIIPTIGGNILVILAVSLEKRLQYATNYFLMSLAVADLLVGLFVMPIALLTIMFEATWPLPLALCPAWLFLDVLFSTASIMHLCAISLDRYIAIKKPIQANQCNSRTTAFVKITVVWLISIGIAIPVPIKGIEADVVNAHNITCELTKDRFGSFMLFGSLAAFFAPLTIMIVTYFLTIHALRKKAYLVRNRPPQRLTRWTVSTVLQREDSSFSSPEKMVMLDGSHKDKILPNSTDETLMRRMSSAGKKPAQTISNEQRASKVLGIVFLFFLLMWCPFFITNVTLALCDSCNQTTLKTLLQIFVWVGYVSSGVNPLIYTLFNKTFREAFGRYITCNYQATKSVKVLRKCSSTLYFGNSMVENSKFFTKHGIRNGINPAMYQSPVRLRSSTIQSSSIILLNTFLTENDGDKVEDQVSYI
UniProt P08909: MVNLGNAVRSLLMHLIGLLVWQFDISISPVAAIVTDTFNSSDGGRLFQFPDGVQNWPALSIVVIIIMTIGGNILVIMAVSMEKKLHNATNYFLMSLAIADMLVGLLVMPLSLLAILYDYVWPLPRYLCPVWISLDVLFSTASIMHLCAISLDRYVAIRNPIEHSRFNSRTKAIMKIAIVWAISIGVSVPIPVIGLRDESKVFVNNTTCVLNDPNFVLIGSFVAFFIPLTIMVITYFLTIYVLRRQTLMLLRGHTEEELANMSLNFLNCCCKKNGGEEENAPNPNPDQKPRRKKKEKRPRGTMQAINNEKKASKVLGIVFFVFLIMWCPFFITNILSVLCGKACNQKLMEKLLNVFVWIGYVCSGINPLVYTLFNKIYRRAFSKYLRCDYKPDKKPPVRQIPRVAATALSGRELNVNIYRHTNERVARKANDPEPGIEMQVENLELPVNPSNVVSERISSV
UniProt P14842: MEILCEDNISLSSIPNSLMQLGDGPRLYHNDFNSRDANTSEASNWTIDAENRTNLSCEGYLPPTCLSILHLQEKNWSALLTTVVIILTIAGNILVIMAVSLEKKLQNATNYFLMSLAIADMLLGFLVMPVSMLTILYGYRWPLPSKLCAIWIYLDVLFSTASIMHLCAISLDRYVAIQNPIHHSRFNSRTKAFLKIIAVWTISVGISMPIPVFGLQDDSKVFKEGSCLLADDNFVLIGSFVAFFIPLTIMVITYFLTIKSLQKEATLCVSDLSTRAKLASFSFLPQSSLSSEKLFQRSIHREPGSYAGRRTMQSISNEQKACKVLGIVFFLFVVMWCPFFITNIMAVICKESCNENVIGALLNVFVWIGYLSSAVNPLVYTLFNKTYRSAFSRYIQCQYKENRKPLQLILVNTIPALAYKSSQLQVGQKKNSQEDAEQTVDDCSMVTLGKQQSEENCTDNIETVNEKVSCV

The target in this assay is Serotonin 2 (5-HT2) receptor (Rattus norvegicus, UniProt P30994+P08909+P14842).

Turning to `COc1ccc2[nH]cc(CCN)c2c1` [5-METHOXYTRYPTAMINE], the “Log Ki” value is on record as -5.99.
